Results taken from patent publication US20100120678.

Molecular target: T1, substrate peptide derived from the region spanning Y1173 in EGFR
T1 chain: TAENAEYLRVAPQ

B1: His-tagged wildtype EGFR kinase domain (protein)
chain: MSYHHHHHHDYDIPTTENLYFQGAMGEAPNQALLRILKETEFKKIKVLGSGAFGTVYKGLWIPEGEKVKIPVAIKELREATSPKANKEILDEAYVMASVDNPHVCRLLGICLTSTVQLITQLMPFGCLLDYVREHKDNIGSQYLLNWCVQIAKGMNYLEDRRLVHRDLAARNVLVKTPQHVKITDFGLAKLLGAEEKEYHAEGGKVPIKWMALESILHRIYTHQSDVWSYGVTVWELMTFGSKPYDGIPASEISSILEKGERLPQPPICTIDVYMIMVKCWMIDADSRPKFRELIIEFSKMARDPQRYLVIQGDERMHLPSPTDSNFYRALMDEEDMDDVVDADEYLIPQQG
- KM of the kinase for the substrate peptide (continuous enzyme-coupled kinase assay): the value of KM for the wildtype kinase domain and this substrate peptide was greater than 4 mM
